Test results taken from publication PMC3906128 (Addiction biology, 2011).

The chains behind the UniProt entries cited, without tags or fusion partners.
UniProt P33535, whole entry: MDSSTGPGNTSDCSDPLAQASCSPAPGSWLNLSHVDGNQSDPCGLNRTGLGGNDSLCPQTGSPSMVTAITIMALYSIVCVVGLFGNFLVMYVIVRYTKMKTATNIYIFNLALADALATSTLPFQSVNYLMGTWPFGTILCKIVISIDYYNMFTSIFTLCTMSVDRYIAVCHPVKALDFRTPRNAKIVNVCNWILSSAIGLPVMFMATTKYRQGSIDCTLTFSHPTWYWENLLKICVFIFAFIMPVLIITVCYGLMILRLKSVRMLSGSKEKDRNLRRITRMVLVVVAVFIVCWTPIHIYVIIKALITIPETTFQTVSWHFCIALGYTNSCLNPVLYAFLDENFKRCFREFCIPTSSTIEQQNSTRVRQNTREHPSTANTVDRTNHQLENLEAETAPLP

Target: MOP-R (Rattus norvegicus, UniProt P33535)
Assay: DAMGO-stimulated [35S]GTPγS binding in rat midbrain membranes
Assay type: biochemical
Details: Mean (± SEM) EC50 for Midbrain Opioid Stimulation, ethanol-trained rats

`C[C@@H](NC(=O)[C@@H](N)Cc1ccc(O)cc1)C(=O)NCC(=O)N(C)[C@@H](Cc1ccccc1)C(=O)NCCO` [DAMGO, [D-Ala^2, N-Me-Phe^4, Gly^5-ol]-Enkephalin acetate salt] gave an EC50 (SoRI-9409 (5 mg/kg I.P.)/Yohimbine (2 mg/kg I.P.)) of 4 ± 0.3 µM, an EC50 (SoRI-9409 (5 mg/kg I.P.)/Yohimbine-vehicle) of 4 ± 0.1 µM and an EC50 (SoRI-9409-vehicle/Yohimbine (2 mg/kg I.P.)) of 3.7 ± 0.2 µM. For the same compound, the EC50 (SoRI-9409-vehicle/Yohimbine-vehicle) was 4.1 ± 0.2 µM.

Counter-ions that a name gives are not always drawn.
